According to patent US7842682B2, “Boronated metal-phthalocyanines, process for their preparation, pharmaceutical compositions comprising them and use thereof” (L. Molteni & C. Dei Fratelli Alitti, priority 2003, dated 2010):

Assay: Pharmacokinetics and tissue distribution in B16-F1 pigmented melanoma bearing mice
Type: in vivo, C57/BL6 mice
Settings: tumour versus skin
Protocol: FIG. 4: Time-dependence of boronated phthalocyanine (B4Pc) recovery from plasma and selected tissues of B16-F1 pigmented melanoma bearing C57/BL6 mice (4A) as well as from tumour and skin (4B), after intravenous administration of 0.75 mg/Kg of boronated phthalocyanine according to Example 21 as DPPC liposomal preparation.
FIG. 5: Time-dependence of boronated phthalocyanine (B4Pc) recovery from plasma and selected tissues of B16-F1 pigmented melanoma bearing C57/BL6 mice (5A), as well as from tumour and skin (5B) after iv administration of 3.0 mg/Kg of boronated phthalocyanine according to Example 21 as DOPC liposomal preparation.
Through pharmacokinetic experiments on B16-F1 pigmented melanoma bearing mice, a number of studies such as tissue affinity, uptake kinetics on various organs, clearance from the body and selectivity for the tumour tissues have been evaluated, using the product described in Example 21. Toward this aim, once tumours had reached the volumes of […], the boronated phthalocyanine as DPPC liposomal preparation (0.75 mg/kg) or as a DOPC liposomal preparation (3 mg/kg) was systemically administered. […]

1,8(11),15(18),22(25)-tetrakis-{[4-(^11B-o-carboran-1-yl)methyl]phenoxy}-phthalocyaninate zinc(II) [Example 21]
selectivity of localization in the tumour: acceptable
